Bioassay records (PubChem BioAssay)
Shown are actives, neighbours in structure and some others; about 16% of the full set was active somewhere.
uPA generation – blocks generation of uPA at the cell surface; AID 540303; cell surface uPA generation assay, qHTS; hit rate 0.31% among 330,000; Potency, µM (highest dose often 38.3 µM), for the others: top-dose activity change, negative = inhibition, hits mostly inhibitors; active = well fitted inhibition curve with a large enough effect; inconclusive = small, poorly fitted or top-dose-only effect; inactive = no such curve, though single readings can be large or run the other way; tested in mouse RAW 264.7 cells; also: potency is read from the fitted curve at half-maximal effect; % is scaled to controls: 0 for no effect and ±100 for the full control effect; nearly all actives have a fitted effect of over 55% in size
TDP1 block – TDP1 (human) enzyme inhibition; Q9NUW8; recombinant TDP1, AlphaScreen DNA substrate cleavage; Potency, µM (top dose mostly 130 µM), for the others: top-dose activity change, negative = inhibition, hits mostly inhibitors; hit rate 0.28% among 350,000; AID 485290; also: potency is read from the fitted curve at half-maximal effect; % is scaled to controls: 0 for no effect and ±100 for the full control effect; nearly all actives have a fitted effect of over 40% in size
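AlphaScreen read-out: signal falls as enzyme removes the 3' tyrosine-FITC from a 5'-biotinylated DNA oligo (15 nM, 5 min, RT). Enzyme was E. coli-made recombinant Tdp1 at 1 nM, exposed to compound for 15 min beforehand; beads 10 ug/ml, 10 min.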
miR-21 reporter – miR-21 reporter, rising signal; HeLa miR-21 FLuc reporter, luciferase, 48 h; Potency, µM (highest dose often 38.3 µM), for the others: top-dose reporter change, positive = more light; 340,000 tested, under 10 active; AID 2288; active = well fitted rising curve with a large enough effect; inconclusive = small, poorly fitted or top-dose-only effect; inactive = no such curve, though single readings can be large or run the other way;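 further: % of control where 0% means no effect; miR-21 action dims this reporter so a rising signal means less miR-21 action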
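HeLa cells endogenously expressing miR-21, stably carrying CMV-driven firefly luciferase with a downstream miR-21 binding site, 2000 cells/well. Titrations up to approximately 40 uM, 48 hours; luciferase luminescence read.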
TDP1 cell noCPT – qHTS for Inhibitors of human tyrosyl-DNA phosphodiesterase 1 (TDP1): qHTS in cells in absence of CPT; hit rate 15% among 420,000; DT40 Tdp1-/- hTDP1 cells, no CPT, ATP luminescence, 48 h; Potency, µM (highest dose often 46.2 µM), inactives show at the highest dose activity change, negative = growth inhibition, usual class: inhibitors; also: potency is read from the fitted curve at half-maximal effect; % is scaled to controls: 0 for no effect and ±100 for the full control effect; nearly all actives have a fitted effect of over 55% in size
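DT40 Tdp1-/-;hTDP1 cells, no CPT (DMSO vehicle only), 400 cells/well; compounds pin-transferred; ≥48 hr, 37 °C; CellTiter-Glo 30 min RT dark, luminescence read.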
DT40 TDP1 CPT – DT40-hTDP1 cell growth loss with CPT; hit rate 12% among 420,000; AID 686979; Potency, µM (titrated, usually from 46.2 µM), for inactives: top-dose activity change, negative = growth inhibition, usual class: inhibitors; chicken DT40 Tdp1-/-;hTDP1 cells + 20 nM CPT, ATP luminescence, 48 h; also: potency is read from the fitted curve at half-maximal effect; % is scaled to controls: 0 for no effect and ±100 for the full control effect; nearly all actives have a fitted effect of over 55% in size
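Chicken DT40 Tdp1-/- cells stably complemented with human TDP1 were seeded at 400 cells/well in medium containing 20 nM camptothecin, exposed to pin-transferred compounds, and grown at 37 °C for at least 48 hr. Viability was read as ATP luminescence.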
An asterisk follows results filed as active; ? = inconclusive; . = no result given; [ ] = another dose, or the depositor's remark. Unless noted, calls follow the shape of the dose curve; as a rule, active = well fitted curve in the direction sought with a large enough effect; inconclusive = small, poorly fitted or top-dose-only effect, or another doubt; inactive = no such curve, though single readings can be large; an effect the other way counts as inactive or inconclusive.

#1 Cc1oc2ncnc(N3CCCCC3)c2c1C(=O)Nc1cccc(Cl)c1C
#2 Cc1ccc(N2CCN(C(=O)c3c(C)oc4ncnc(N5CCCCC5)c34)CC2)c(C)c1
#3 Cc1oc2ncnc(N3CCCCC3)c2c1C(=O)Nc1cccc(F)c1
#4 Cc1ccc(N2CCN(C(=O)c3c(C)oc4ncnc(N5CCOCC5)c34)CC2)c(C)c1
#5 COc1cc2c(C(=O)N3CCN(c4ccccc4)CC3)c(C)oc2cc1Br
#6 COc1ccc(CN(CC(=O)NCCC(C)C)C(=O)CCC(=O)Nc2nccs2)cc1
#7 COc1ccc(NC(=O)COC(=O)CN2C(=O)c3ccccc3C2=O)cc1
#8 CCN(CC)S(=O)(=O)c1ccc(NC(=O)c2c(C)oc3ncnc(N4CCCCC4)c23)cc1
#9 COc1cccc(N2CCN(C(=O)c3c(C)oc4ncnc(N5CCCCC5)c34)CC2)c1
#10 Cc1nc(N2CCCC2)c2c(C(=O)N3CCN(c4cccc(Cl)c4)CC3)c(C)oc2n1

screen / no. | 1 | 2 | 3 | 4 | 5 | 6 | 7 | 8 | 9 | 10
uPA generation | . | . | . | . | -4% | 1% | 0% | . | . | .
TDP1 block | 1% | -1% | -1% | 3% | 6% | 1% | 1%[0.505 µM] | 5% | 0% | 0%
miR-21 reporter | ? | 5% | 5% | 4% | -2% | 1% | . | 11% | -1% | 25%
TDP1 cell noCPT | 15µM* | 7.3µM* | ? | -27% | 18µM* | -18% | 1% | 15µM* | 18µM* | ?
DT40 TDP1 CPT | 16µM* | 16µM* | ? | ? | ? | 2% | -12% | 21µM* | ? | ?

A few values from the list:
Value of entry 8 under TDP1 cell noCPT: 15µM*
Value of entry 2 under miR-21 reporter: 5%

Further compounds follow.
#11 Cc1nc(N2CCCC2)c2c(C(=O)N3CCN(c4cc(Cl)ccc4C)CC3)c(C)oc2n1
#12 CC(C)(Oc1ccc(Cl)cc1)C(=O)NCCCn1ccnc1
#13 O=C1OC(c2ccc(F)cc2)=C/C1=C\c1ccc([N+](=O)[O-])o1
#14 Oc1ccc(Cl)cc1-c1cc(-c2cccc(Br)c2)n[nH]1
#15 Oc1ccc(Cl)cc1-c1cc(-c2ccco2)[nH]n1
#16 CCOc1ccc(CCNC(=O)C2CCCN(c3nnc(-n4cccc4)s3)C2)cc1OCC (configuration not stated)
#17 O=C(CCNC(=O)N1CCn2c1nc1ccccc12)NCc1ccccc1
#18 Cc1ccc(S(=O)(=O)/N=C(\N)Nc2nc(C)c3cc(C)c(C)cc3n2)cc1
#19 Cc1ccc(S(=O)(=O)/N=C(\N)Nc2nc(C)c3ccc(C)cc3n2)cc1
#20 Cc1cc2c(Nc3ccccc3O)ncnc2s1

screen / no. | 11 | 12 | 13 | 14 | 15 | 16 | 17 | 18 | 19 | 20
uPA generation | . | 13% | . | -1% | -4% | -4% | 7% | . | ? | .
TDP1 block | . | 4% | -10% | -6% | 5% | -2% | 4% | 7% | 5% | .
miR-21 reporter | ? | -3% | -1% | 18% | -19% | -6% | -5% | -7% | -3% | .
TDP1 cell noCPT | 18µM* | -12% | . | 18µM* | 18µM* | ? | -4% | ? | ? | -22%
DT40 TDP1 CPT | ? | -6% | . | 16µM* | 9.2µM* | -22% | 1% | 23µM* | 21µM* | -20%

#21 Cc1cnc(C(=O)OCC(=O)Nc2cccc(C)c2C)cn1
#22 CCCCNC(=O)C1(C)CCCCN1C(=O)c1c(F)ccc(C)c1F (configuration not stated)
#23 CCCCNC(=O)C1(C)CCCCN1C(=O)c1c(Cl)cccc1Cl (configuration not stated)
#24 CCCCNC(=O)C1(C)CCCCN1C(=O)c1ccc2sccc2c1 (configuration not stated)
#25 CC(C)CNC(=O)C1(C)CCCCCN1C(=O)c1cc2ccccc2s1 (configuration not stated)
#26 CCCCNC(=O)C1(C)CCN1C(=O)c1cc(-c2cccs2)oc1C (configuration not stated)
#27 CCCCNC(=O)C1(C)CCN1C(=O)c1ccccc1Br (configuration not stated)
#28 CCCCNC(=O)C1(C)CCCCN1C(=O)c1cc2ccccc2s1 (configuration not stated)
#29 Cc1ccc(CNC(=O)C(N=C2NS(=O)(=O)c3ccccc32)C(C)C)cc1 (configuration not stated)
#30 N[C@@]1(C(=O)O)CN[C@H](C(=O)O)C1

screen / no. | 21 | 22 | 23 | 24 | 25 | 26 | 27 | 28 | 29 | 30
uPA generation | 0% | . | . | . | . | . | . | . | 10% | .
TDP1 block | -4% | . | . | . | . | . | . | . | 0%[56.1 µM] | 13%
miR-21 reporter | . | . | . | . | . | . | . | . | . | .
TDP1 cell noCPT | -7% | -17% | 13µM* | 16µM* | ? | 3.7µM* | -5% | 15µM* | 1% | -14%
DT40 TDP1 CPT | 18% | 2% | ? | ? | -21% | 1.6µM* | -1% | 8.2µM* | -20% | -4%

#31 N=c1sccn1CC(=O)Nc1cc(Cl)ccc1[N+](=O)[O-]
#32 CCCCCCCCN1C(=O)[C@H](CC(=O)NCCc2ccccc2OC)C[C@@]2(C(=O)OC)CC(C)(C)CC=C12
#33 CCCCCCCCN1C(=O)[C@H](CC(=O)NCCCOCCCC)C[C@@]2(C(=O)OC)CC(C)(C)CC=C12
#34 C#CCNC(=O)C[C@@H]1C[C@@]2(C(=O)OC)CC(C)(C)CC=C2N(CCCCCCCC)C1=O
#35 CCCCOCCCNC(=O)C[C@@H]1C[C@@]2(C(=O)OC)CC(C)(C)CC=C2N(Cc2ccccc2)C1=O
#36 COc1ccc(CC(=O)Nc2cccnc2)cc1
#37 COC(=O)[C@@]12C[C@@H](CC(=O)NCCCN3CCCC3=O)C(=O)N(Cc3ccccc3)C1=CCC(C)(C)C2
#38 CCCCCCCCN1C(=O)[C@H](CC(=O)NCC2CCCCC2)C[C@@]2(C(=O)OC)CC(C)(C)CC=C12
#39 CCCCCCCCN1C(=O)[C@H](CC(=O)NCCCN2CCCC2=O)C[C@@]2(C(=O)OC)CC(C)(C)CC=C12
#40 CCCCCCCCN1C(=O)[C@H](CC(=O)NCCCOC)C[C@@]2(C(=O)OC)CC(C)(C)CC=C12

screen / no. | 31 | 32 | 33 | 34 | 35 | 36 | 37 | 38 | 39 | 40
uPA generation | -1% | . | . | . | . | -2% | . | . | . | .
TDP1 block | 5% | . | . | . | . | 4% | . | . | . | .
miR-21 reporter | 3% | . | . | . | . | -1% | . | . | . | .
TDP1 cell noCPT | -1% | ? | 15µM* | 16µM* | ? | 0% | -27% | 13µM* | 13µM* | 15µM*
DT40 TDP1 CPT | 5% | 21µM* | ? | ? | 21µM* | 0% | 11% | ? | 13µM* | ?

#41 COCCCNC(=O)C[C@@H]1C[C@@]2(C(=O)OC)CC(C)(C)CC=C2N(Cc2ccco2)C1=O
#42 COC(=O)[C@@]12C[C@@H](CC(=O)NCCCN3CCCC3=O)C(=O)N(Cc3ccco3)C1=CCC(C)(C)C2
#43 O=C(c1ccc(F)cc1)N1CCN(c2ccc([N+](=O)[O-])c(N3CCOCC3)c2)CC1
#44 O=C(COc1ccccc1Cl)N1CCN(c2ccc([N+](=O)[O-])c(N3CCOCC3)c2)CC1
#45 Cc1ccc(C(=O)N2CCN(c3ccc([N+](=O)[O-])c(N4CCOCC4)c3)CC2)cc1
#46 COc1ccc(Cl)cc1NC(=O)CN(C)C(=O)COc1ccccc1F

screen / no. | 41 | 42 | 43 | 44 | 45 | 46
uPA generation | . | . | -4% | 4% | -2% | -8%
TDP1 block | . | . | 3% | 11% | 2% | -3%
miR-21 reporter | . | . | -1% | 0% | 2% | -5%
TDP1 cell noCPT | 0% | 21% | ? | 16µM* | ? | -3%
DT40 TDP1 CPT | -7% | 1% | ? | ? | 29µM* | 2%

An excerpt from above in order of molar mass, lowest first.
#46 COc1ccc(Cl)cc1NC(=O)CN(C)C(=O)COc1ccccc1F
#45 Cc1ccc(C(=O)N2CCN(c3ccc([N+](=O)[O-])c(N4CCOCC4)c3)CC2)cc1
#44 O=C(COc1ccccc1Cl)N1CCN(c2ccc([N+](=O)[O-])c(N3CCOCC3)c2)CC1
#40 CCCCCCCCN1C(=O)[C@H](CC(=O)NCCCOC)C[C@@]2(C(=O)OC)CC(C)(C)CC=C12

screen / no. | 46 | 45 | 44 | 40
uPA generation | -8% | -2% | 4% | .
TDP1 block | -3% | 2% | 11% | .
miR-21 reporter | -5% | 2% | 0% | .
TDP1 cell noCPT | -3% | ? | 16µM* | 15µM*
DT40 TDP1 CPT | 2% | 29µM* | ? | ?
